Chains of the proteins cited; added tags and fusions are not shown. Residues count along the entry.
UniProt Q07817, 1-212 S2L: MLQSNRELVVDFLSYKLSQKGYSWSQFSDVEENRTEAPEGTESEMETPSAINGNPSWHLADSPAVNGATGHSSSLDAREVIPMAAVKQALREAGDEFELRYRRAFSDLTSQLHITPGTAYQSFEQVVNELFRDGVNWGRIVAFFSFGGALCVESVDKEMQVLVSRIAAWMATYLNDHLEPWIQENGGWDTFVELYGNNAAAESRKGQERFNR

In patent EP1985629A1, “Pro-apoptotic molecules and therapeutic uses thereof” (UNIVERSITA DEGLI STUDI DI GENOVA, priority 2007, dated 2008):

Tests used:
[1] = target: T1, Bcl-XL (Homo sapiens, UniProt Q07817, S2L); test: Fluorescence anisotropy binding and competition binding assay
T1 construct: with the C-terminus truncated; His6; made in house; host or cells: Escherichia coli BL21 (pLys)
Procedure: Fluorescence Anisotropy was monitored with a Polarion Instrument (Tecan, Austria): excitation wavelength = 485 nm, emission wavelength = 535 nm. […] Anisotropy values were studied at a fixed concentration of fluoresceinated Bak BH3 molecule (2E-8 M), a fixed concentration of peptide inhibitors (2E-7 M) and increasing concentrations of Bel-XL (from 2E-8 M to 1E-6 M). Experiments were performed in 96-wells black non-binding plates (Corning), the experimental volume was always 200 µl / well. Reagents were mixed at room temperature and maintained at a constant temperature (30°C) during the measurements. Anisotropy measurements were performed at different times of incubation to assess the stability of the reactions. […]
For simple binding experiments we evaluated the Kd using a nonlinear regression analysis [NLIN SAS] to fit the Lundblad equation [38]. […]
We calculated the expected Anisotropy value solving a third degree equation obtained extending the simple binding equation to a competitive binding inhibition assay. […]
Point estimates of each equilibrium constant were evaluated using meta-analytical tools weighting each experimental result for its estimated variance. […]
Fluorescence Anisotropy (FA) is a quantitative technique to analyze the interaction of a smaller fluorescent molecule with a larger non fluorescent molecule. […]

[2] = Circular dichroism, relative content of secondary structure elements; assay type: physicochemical; set-up: key to α-Helix / β-Strands / β-Turns / Random: relative content as fraction, from CDSSTR deconvolution; details: CDSSTR deconvolution
Procedure: Circular dichroism (CD) spectra in the far-UV region (190-260 nm) were collected on a Jasco J-715 spectropolarimeter using a 0.1 cm path-length cuvette. Temperature was kept at 25°C by a Peltier device. Peptide concentration was determined from the absorption of the aromatic residues at 280 nm.
Peptides solutions: Bim-BH3Y and Bim-BH3YA2Aib were suspended in water and potassium hydroxide was added up to complete solubilization. 072RB was dissolved in water. Concentration of stock solutions was about 0.1 mg/ml. For circular dichroism measurements, stock solutions were diluted in 10 mM potassium phosphate buffer, pH 7.
The relative content of secondary structure elements was calculated with the deconvolution program CDSSTR [31] (Table 2). […] 072RB has the highest helical content in the set examined here (0.30 α-helix percent).

[3] = Peptides stability in medium with 10% FBS or in 100% FBS (HPLC-MS); assay type: in vitro ADME; details: RPMI 1640 medium with 10% fetal bovine serum (FBS), medium (RPMI 1640) with 10% FBS, 37°C, calculated by linear regression
Procedure: Compounds were added to the medium solution of serum 10% or 100% FBS at the final concentration of 32 µM. Several extraction mixtures were attempted: MeOH; MeOH with 0,1% trifluoroacetic acid (TFA); (H2O: MeOH) 1:1, 1:4, 4;1. A perchloric acid (PCA) protein precipitation protocol was also tried. […] In both cases ice-cold methanol was added to the peptide solution. The mixture was centrifuged and the resulting supernatant was then added with ice-cold methanol (alone or containing 0,1% TFA) at a 1:1 final ratio and this procedure was repeated twice. Before extraction peptides were incubated in 10% FBS or 100% FBS at 37°C and, at different incubation times (0', 6, 24 and 48 hours), a sample of 50 µl was collected to be analyzed by HPLC-MS.

[4] = relative content, 10 mM potassium phosphate buffer, pH 7, 25°C

- Kd ([1]; competition binding assay: BakF-BH3 2E-8 M, competitor peptide 2E-7 M, Bcl-XL 2E-8 M to 1E-6 M, 45 min, 30°C, read-out: Weighted mean Kd): 29.2 nM
- experimental ΔG° difference ([1]; wild type versus W89Y mutant complex): 0.8 kcal/mol
- relative content of helices [2]: 0.03 α-helix percent
- Random [2, 4]: 0.59
- α-Helix [2, 4]: 0.03
- β-Strands [2, 4]: 0.22
- β-Turns [2, 4]: 0.14
- half-life at 32 µM [3]: 49.5 h
Compound: CC[C@H](C)[C@H](NC(=O)[C@H](CCCNC(=N)N)NC(=O)[C@H](CCCNC(=N)N)NC(=O)[C@H](CC(C)C)NC(=O)[C@H](CCC(=O)O)NC(=O)[C@H](CCC(N)=O)NC(=O)[C@H](C)NC(=O)[C@@H](NC(=O)[C@H](Cc1ccc(O)cc1)NC(=O)[C@@H](NC(=O)[C@H](CCC(=O)O)NC(=O)[C@@H]1CCCN1C(=O)[C@H](CCCNC(=N)N)NC(=O)[C@H](CCSC)NC(=O)[C@@H](N)CC(=O)O)[C@@H](C)CC)[C@@H](C)CC)C(=O)NCC(=O)N[C@@H](CC(=O)O)C(=O)N[C@@H](CCC(=O)O)C(=O)N[C@@H](Cc1ccccc1)C(=O)N[C@@H](CC(N)=O)C(=O)N[C@@H](C)C(=O)N[C@@H](Cc1ccc(O)cc1)C(N)=O [Bim-BH3 Y]
